Assay results published in patent publication US7235366 (dated 2007).
Numbering of substitutions follows the chain as printed. Like-named read-outs stand apart in the source and are kept apart here.

Tests used:
Assay in all cases: competition
human mu opioid receptor [1] = target: T1, human mu opioid receptor (Homo sapiens, UniProt P35372)
[2] = target: T2, mouse delta opioid receptor (mORD1, msl-2) (Mus musculus)
T2 chain: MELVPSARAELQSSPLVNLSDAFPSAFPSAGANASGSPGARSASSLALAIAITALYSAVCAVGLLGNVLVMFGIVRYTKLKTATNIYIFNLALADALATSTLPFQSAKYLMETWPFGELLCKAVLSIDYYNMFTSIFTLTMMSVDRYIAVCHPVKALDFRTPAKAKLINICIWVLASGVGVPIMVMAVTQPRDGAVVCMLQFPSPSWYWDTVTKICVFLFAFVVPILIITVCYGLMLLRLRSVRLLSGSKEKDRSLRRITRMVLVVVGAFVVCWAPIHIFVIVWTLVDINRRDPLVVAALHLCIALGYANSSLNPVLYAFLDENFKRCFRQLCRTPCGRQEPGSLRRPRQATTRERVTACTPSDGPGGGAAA

[3] = target: T2, mouse delta opioid receptor (mORD1, …)
human mu opioid receptor [4] = target: T1, human mu opioid receptor; remark: listed apart in the source
[5] = target: T3, delta opioid receptor D128N mutant (Mus musculus)
T3 chain: T2 chain with D128N

rat mu opioid receptor = target: T4, rat mu opioid receptor (Rattus norvegicus, UniProt P33535)
T4 chain: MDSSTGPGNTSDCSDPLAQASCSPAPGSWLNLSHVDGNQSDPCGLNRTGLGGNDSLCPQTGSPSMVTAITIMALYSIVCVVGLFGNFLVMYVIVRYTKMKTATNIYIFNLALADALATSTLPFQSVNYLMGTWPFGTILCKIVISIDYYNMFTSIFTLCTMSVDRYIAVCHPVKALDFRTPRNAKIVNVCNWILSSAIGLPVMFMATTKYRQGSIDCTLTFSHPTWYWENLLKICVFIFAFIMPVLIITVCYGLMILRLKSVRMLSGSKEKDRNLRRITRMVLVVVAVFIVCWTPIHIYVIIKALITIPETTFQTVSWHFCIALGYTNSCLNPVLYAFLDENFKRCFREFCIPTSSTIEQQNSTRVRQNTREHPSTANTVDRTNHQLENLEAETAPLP

[6] = target: T5, delta opioid receptor H278N mutant (Mus musculus)
T5 chain: T2 chain with H278N

B1: beta-Endorphin (protein)
chain: WCLESSQCQDLTTESNLLECIRACKPDLSAETPMFPGNGDEQPLTENPRKYVMGHFRWDRFGRRNSSSSGSSGAGQKREDVSAGEDCGPLPEGGPEPRSDGAKPGPREGKRSYSMEHFRWGKPVGKKRRPVKVYPNGAEDESAEAFPLEFKRELTGQRLREGDGPDGPADDGAGAQADLEHSLLVAAEKKDEGPYRMEHFRWGSPPKDKRYGGFMTSEKSQTPLVTLFKNAIIKNAYKKGE
With B1 the Ki (human mu opioid receptor [1]) was 0.94 nM, the IC50 [2] was 15.3 nM and the Ki [3] was 26 nM. The Ki (human mu opioid receptor [4]) was 0.94 nM, the Ki [5] was 15800 nM and the Ki (rat mu opioid receptor) was 1.7 nM. The Ki [6] was 8.1 nM.
